Data: patent US20060189539A1, “Novel GnRH analogues with antitumour effects and pharmaceutical compositions thereof” (priority 1994, published 2006)

Details: summary statement

Substance | Toxicity according to the in vivo studies
Ac-D-Trp^1,3,D-Cpa^2,{Lys[n-poly(N-vinyl pyrrolidone-co-maleic acid)-Gly-Phe-Leu-Gly-]}5, [a-Asp(DEA)]6, D-Ala10-GnRH [P-GFLG-1892] | non-toxic
Ac-D-Trp1,3,D-Cpa2,{D-Lys[n-poly-(N-vinylpyrrolidone-co-maleic acid)-Gly-Phe-Leu-Gly]}6. D-Ala10-GnRH [P-GFLG-1544] | non-toxic
